These results are taken from patent publication US20210246109A1, “POTENT AND SELECTIVE INHIBITORS OF CYTOCHROME P450” (University of Kentucky Research Foundation, priority 2020, published 2021).

Structures are written as SMILES. Like-named read-outs stand apart in the source and are kept apart here.

In general, IC50 refers to the concentration that inhibits the measured activity by half.

In one series the target is T1, CYP1B1 (Homo sapiens, UniProt Q16678).
T1 construct: expressed in transfected cells
T1 sequence (Q16678 1-543): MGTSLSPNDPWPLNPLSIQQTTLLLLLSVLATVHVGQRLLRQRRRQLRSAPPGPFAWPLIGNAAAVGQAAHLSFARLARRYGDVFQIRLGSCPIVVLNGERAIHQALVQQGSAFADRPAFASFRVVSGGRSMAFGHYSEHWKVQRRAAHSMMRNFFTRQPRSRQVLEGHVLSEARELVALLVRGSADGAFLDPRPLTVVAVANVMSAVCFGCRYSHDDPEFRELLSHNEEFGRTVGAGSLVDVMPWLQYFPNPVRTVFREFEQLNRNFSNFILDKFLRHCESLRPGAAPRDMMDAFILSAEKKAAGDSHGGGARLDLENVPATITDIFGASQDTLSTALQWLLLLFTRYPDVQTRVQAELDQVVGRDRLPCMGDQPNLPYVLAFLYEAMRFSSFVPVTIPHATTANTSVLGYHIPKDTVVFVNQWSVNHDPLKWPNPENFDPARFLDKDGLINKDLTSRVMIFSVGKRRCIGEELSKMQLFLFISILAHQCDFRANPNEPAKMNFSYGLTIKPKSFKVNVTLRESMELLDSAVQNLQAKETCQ
Briefly: EROD assay in inducible CYP1B1 cell line. It is filed as cell-based.

In a further series the target is T2, CYP1A1 (Homo sapiens, UniProt P04798).
T2 construct: expressed in transfected cells
T2 sequence (P04798 1-512): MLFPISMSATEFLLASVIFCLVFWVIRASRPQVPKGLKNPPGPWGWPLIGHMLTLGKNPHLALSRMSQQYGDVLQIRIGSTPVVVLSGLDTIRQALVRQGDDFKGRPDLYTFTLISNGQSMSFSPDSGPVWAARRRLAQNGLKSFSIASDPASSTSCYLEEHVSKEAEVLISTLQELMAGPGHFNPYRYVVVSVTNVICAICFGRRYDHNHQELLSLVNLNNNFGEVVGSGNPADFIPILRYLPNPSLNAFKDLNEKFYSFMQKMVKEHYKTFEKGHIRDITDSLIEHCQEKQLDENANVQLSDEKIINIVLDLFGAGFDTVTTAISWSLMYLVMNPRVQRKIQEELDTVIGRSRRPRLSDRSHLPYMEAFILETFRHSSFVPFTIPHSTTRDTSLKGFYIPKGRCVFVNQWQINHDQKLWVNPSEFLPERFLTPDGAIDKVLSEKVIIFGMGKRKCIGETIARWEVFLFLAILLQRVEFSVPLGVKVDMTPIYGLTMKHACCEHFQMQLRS
Briefly: EROD assay in CYP1A1 counter-screen cell line. It is filed as cell-based.

For `O=c1cc(-c2ccccc2)oc2c1ccc1ccccc12` [ANF, reference compound], the IC50 on CYP1B1 (Table 1, read-out: CYP1B1 IC50) stood at 140 nM; at CYP1B1 (Table 3, read-out: IC50 1B1), 140 nM; at CYP1A1 (Table 1, read-out: CYP1A1 IC50), 86 nM; on CYP1A1 (Table 3, read-out: IC50 1A1), 860 nM.

At CYP1B1 (IC50 CYP1B1, Table 2, EROD assay), `COc1ccc(-c2nc(-c3cccnc3)cs2)c(OC)c1` [GL661] yielded an IC50 of 5.5 nM.
